Earlier results, collected in US6576662B2, “Compounds having anticancer activity : process for their preparation and pharmaceutical compositions containing them” (Dr. Reddy's Laboratories Limited, priority 2000, dated 2003).

Test system: H9 cell
Settings: cited from earlier work

dehydroandrographolide succinic acid monoester [DASM]
concentrations nontoxic to the H9 cell: 50 to 200 µg/mL
